Values of other authors in patent US20150086626A1, “STABLE DOSAGE FORMS OF SKELETAL MUSCLE RELAXANTS WITH EXTENDED RELEASE COATING” (MYLAN, INC, priority 2012, published 2015).

- Solubility in hydrocarbon solvents (hydrocarbon solvents): insoluble
- Solubility in isopropanol (isopropanol): sparingly soluble
- Solubility in water and alcohol (water and alcohol): freely soluble
Compound: CN(C)CCC=C1c2ccccc2C=Cc2ccccc21.Cl [Cyclobenzaprine hydrochloride, 3-(5H-dibenzo[a,d]cyclohepten-5-ylidene)-N,N-dimethyl-1-propanamine hydrochloride]
